US6987168

Experiments:
Test in all cases: cell-based or functional assay
[1] = target: tissue kallikrein
[2] = target: trypsin
[3] = target: plasmin

tissue kallikrein activity (n-benzoyl-Pro-Phe-Arg-pNA, absorbance at 410 nm); concentration giving complete inhibition [1]: 0.75 µM
concentration for 50% trypsin inhibition (peptide release from resorufin-labelled casein) [2]: 0.024 µM
concentration corresponding with 50% plasmin inhibition (peptide release from resorufin-labelled casein) [3]: 0.097 µM
Substance: aprotinin (from UniProt P00974 36-91)
